We go through 1 compound from PubChem BioAssay AID539 (SRMLSC, 2006).

Only a part is listed here, and it is no random draw. Calls of active or inactive are those of the source.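 The calls were made as follows: active = top-ranked compounds by inhibition in the single 10 µM screen, taking a fixed number of the strongest; inactive = the rest, inconclusive results apart.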

For the test, the system named is phosphomevalonate kinase (Streptococcus pneumoniae D39). Description: phosphomevalonate kinase enzyme inhibition – biochemical, mevalonate pathway, pilot trial included, primary screen (AID 539).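 Also: 0% = full reaction with DMSO carrier and 100% = background rate without enzyme reaction.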 As to conditions: purified PMK, PK/LDH-coupled NADH absorbance 340 nm; at 10 µM; stronger effect = higher value.
As for `O=P(Nc1nccs1)(c1ccccc1)c1nc2ccccc2s1` (stereo unspecified), the inhibition is active: 78%.

What is called inhibition is how much of the control response was suppressed.
